The test concerns the target T1, Ribonuclease pancreatic (Bos taurus, UniProt P61823).
T1 sequence (P61823 whole entry): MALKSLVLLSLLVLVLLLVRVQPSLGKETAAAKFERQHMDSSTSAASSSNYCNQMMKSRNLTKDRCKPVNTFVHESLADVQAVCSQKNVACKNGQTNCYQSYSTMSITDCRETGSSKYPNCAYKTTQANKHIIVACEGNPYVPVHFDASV
The test is described as follows: Inhibition of bovine pancreatic RNase A by spectrophotometric method. In a few lines: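 Bovine pancreatic RNase A; spectrophotometric initial-velocity assay with 2′,3′-cCMP substrate in 0.1 M Mes-NaOH pH 6.0, 0.1 M NaCl. Ki taken from Dixon plots (1/V vs [I]) by the competitive equation; at least three repeats per set.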

Each structure is given as a SMILES string.

For `Cc1cn([C@H]2C[C@H](O)[C@@H](CN3CCCCC3)O2)c(=O)[nH]c1=O`, the Ki was 396 µM.

In general, Ki refers to the equilibrium dissociation constant of an inhibitor or competing ligand from its target. Higher therefore signals weaker binding.

These data come from ChEMBL document CHEMBL1140896, “Morpholino, piperidino, and pyrrolidino derivatives of pyrimidine nucleosides as inhibitors of ribonuclease A: synthesis, biochemical, and crystallographic evaluation” (J Med Chem, 2009).
